Target: Type-1 angiotensin II receptor (Oryctolagus cuniculus, UniProt P34976)
Assay: Evaluation of Angiotensin II antagonistic activity by displacement of [125I]-Sar Ile-AII at the rabbit aorta Angiotensin II receptor, type 1
Format: tissue-based
Outline: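 Rabbit aorta membranes, run without BSA. Competition against [¹²⁵I]Sar¹Ile⁸-AII, in duplicate tubes. Some values are means of two or more separate assays. Standard error is estimated at <30% of the mean.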

Protein sequences, listed by entry. Tags and fused reporters are not part of them.
UniProt P34976, whole entry: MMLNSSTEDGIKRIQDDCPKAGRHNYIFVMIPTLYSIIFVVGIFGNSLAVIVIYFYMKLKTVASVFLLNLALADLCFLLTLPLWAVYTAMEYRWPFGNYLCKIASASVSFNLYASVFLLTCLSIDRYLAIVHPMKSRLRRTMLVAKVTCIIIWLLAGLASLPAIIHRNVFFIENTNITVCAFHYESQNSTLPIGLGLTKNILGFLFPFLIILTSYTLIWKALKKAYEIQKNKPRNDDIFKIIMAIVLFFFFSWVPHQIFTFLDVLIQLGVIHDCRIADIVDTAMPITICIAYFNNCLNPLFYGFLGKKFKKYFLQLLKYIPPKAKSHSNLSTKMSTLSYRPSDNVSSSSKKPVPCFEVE

- IC50: 3.6 nM
Structure (SMILES): CCCc1[nH]nc(C(=O)O)c1Cc1ccc(-c2ccccc2-c2nnn[nH]2)cc1
